{
  "source": "patent US5686495A",
  "about": "“Substituted hydrazinedicarboximidamides and methods of use thereof” (Cambridge NeuroScience, Inc., priority 1995, dated 1997)",
  "test_system": "3H-glutamate release from rat brain synaptosomes",
  "test": "Inhibition of K+-evoked 3H-glutamate release from synaptosomes (rapid superfusion)",
  "format": "cell-based",
  "conditions": "100 μM; Control = 100; K+ depolarization",
  "procedure": "To study the release of presynaptic ^3 H-glutamate, synaptosomes from young rats were used. CD Male rats of 4 to 6 weeks (50-75 g) were used for the preparation of synaptosomes. Rats were killed by decapitation with guillotine and the skull bone was opened in the center with the pointed blade of dissection scissors. The bone is then peeled away with a bone cutter and the brain is pried with a micro spatula. The cerebellum is removed and the rest of the brain is placed in 35 ml of 0.32M Sucrose solution and homogenized in a Thomas glass teflon homogenizer C at the maximum power setting (about 450 rpm) with 16 strokes. The pestle is rinsed with 5 ml of sucrose solution and added to the homogenate. The homogenate is centrifuged for 10 min at 3500 rpm (1500 g) in a SS-34 rotor in Sorvall RC-5B. The resulting pellet (P1) is discarded and the supernatant (S1) is recentrifuged for 20 min at 8700 rpm (8500 g). The supernatant (S2) is discarded and the pellet (P2) is resuspended in 5 ml of 0.32M sucrose and hand homogenized with 4 strokes (Thomas C) and the volume was made up to 8 ml. This homogenate was layered on 20 ml of 0.8M sucrose solution in two centrifuge tubes and spun for 25 minutes at 8700 rpm (8500 g). At the end of this spin, most of the myelin stays at the interphase of 0.32M and 0.8M sucrose and mitochondria pellet as a brown pellet. […]",
  "data": [
    {"substance": "N,N-di-(3-methylphenyl)guanidine", "values": [
      {"measurement": "relative level of glutamate release", "result": 106}
    ]}
  ]
}
